# Assays:
# Amino acid sequences for entries named in this document (tags omitted). Residues count along the entry.
# UniProt P43681, 27-627 limits assumed: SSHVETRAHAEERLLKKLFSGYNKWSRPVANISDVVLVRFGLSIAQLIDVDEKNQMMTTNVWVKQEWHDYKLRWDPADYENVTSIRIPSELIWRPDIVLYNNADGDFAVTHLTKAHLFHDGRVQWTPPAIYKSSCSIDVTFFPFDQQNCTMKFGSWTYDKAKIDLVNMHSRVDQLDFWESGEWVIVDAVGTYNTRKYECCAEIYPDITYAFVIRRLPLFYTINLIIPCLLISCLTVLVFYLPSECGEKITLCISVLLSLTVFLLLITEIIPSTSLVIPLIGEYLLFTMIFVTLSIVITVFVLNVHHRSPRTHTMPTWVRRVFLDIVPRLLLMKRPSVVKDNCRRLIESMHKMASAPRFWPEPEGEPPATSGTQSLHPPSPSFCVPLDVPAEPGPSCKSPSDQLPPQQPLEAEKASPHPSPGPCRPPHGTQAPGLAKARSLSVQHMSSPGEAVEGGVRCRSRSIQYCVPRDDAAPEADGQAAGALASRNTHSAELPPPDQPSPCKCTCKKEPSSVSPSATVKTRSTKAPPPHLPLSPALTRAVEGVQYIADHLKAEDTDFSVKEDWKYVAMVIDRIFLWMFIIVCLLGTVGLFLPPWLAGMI
# [1] = biological target: T1, Neuronal acetylcholine receptor subunit alpha-4 (Homo sapiens, UniProt P43681); test: ASSAY_NAME: ChEMBL_558775 (CHEMBL1020768) DESCRIPTION: Displacement of [3H]epibatidine from alpha4beta4 nAChR expressed in HEK293 cells
# [2] = biological target: T1, Neuronal acetylcholine receptor subunit alpha-4; test: ASSAY_NAME: ChEMBL_558773 (CHEMBL1020766) DESCRIPTION: Displacement of [3H]epibatidine from alpha4beta2 nAChR expressed in HEK293 cells
smiles,measurement,setting,value
CN(C)C(=O)OCCC(C1CC1)N(C)C (configuration not stated),Ki,[1],3.98 µM
same,Ki,[2],6.31 µM

# Source: BindingDB's records for 19027295
